# Experimental data reported in patent US9725695B2, “Stem cell defined media for xeno-free and feeder free conditions and uses thereof” (The Regents of the University of California, priority 2010, dated 2017).
# What was measured:
# [1] = test system: H-9 cells; experiment: Kinetic growth of H-9 cells on feeders in PB12/RCCD media formulations (Integral, Px,max, μ) with Statistica effect/regression models; format: cell-based, human; conditions: codified values
# [2] = test system: H-9 cells; experiment: as above; format: cell-based, human; design: Effect on Integral / Effect on μ: unit not given here
# Excerpt: A Placket-Burman matrix of 12 independent conditions (PB12) was used (Table 1), according to the Design of Experiments (DOE) methodology for the screening of 8 factors (RODRIGUES & IEMMA, 2005). […] Since this first step, the PB12, is a screening step, whenever it was possible the concentration of the factor was set as zero. • Condition 0: represents the central condition of the DOE, being the mean value obtained from averaging the values for levels −1 and +1. In addition to the central condition, the “main” central condition is defined as a state when all factors are set to condition 0.
# In total, 14 different conditions were examined: 12 related to the PB12 matrix, 1 related to the “main” central condition that was performed in quadruplicates for the error estimation and a control condition with KSR. The basal media was: a 1:1 mixture 1:1 of DMEM and Ham's F12 (DMEM/F12; Mediatech, Manassas, Va.; catalog number 10-092), 1% NEAA, 110 μM β-mercaptoethanol (BME; Sigma-Aldrich, St. Louis, Mo.; catalog number M7522), 50 μg/mL gentamicin sulfate (Mediatech, Manassas, Va.; catalog number 30-005-CR) and 8 ng/mL of FGF-2 (Peprotech, Rocky Hill, N.J.; catalog number 100-18B). FGF-2 was reconstituted in PBS at 100 ug/mL and was added to the media for a final concentration of 8 ng/mL at the start of the culture. During the culture period, additional FGF-2 (8 ng/mL) was added directly to the media on a daily basis.
# Every 24 hours one well from each condition and 4 wells from the main central condition were enzymatic dissociated and counted with the help of an automatic counter (NucleoCounter NC-100), for an unbiased measure of cell growth. In that way, by the end of the 5 days, a kinetic curve was obtained for every single condition (FIG. 1). Readouts like integral of cells (integral; defined as area below the curve), maximum productivity (Px,max; defined as the highest value obtained from dividing cell number by time) or and specific global ( ) growth rate (or speed of cell growth obtained from the formula dX/dt=pX) were calculated in order to perform the statistics comparing all different curves (Table 3).
# Through the estimation of the effects from the least square method and the calculation of the errors obtained by the replicates performed on the main central condition (formulation 13), “t” was calculated as the ratio of effect and error.
# By comparing the calculated “t” value with “t” values from a Student's “t” distribution table for a bilateral distribution, the p-value was obtained for each parameter in every readout. A priori, establishing a confidence interval of 90%, it is possible to identify, on Table 4, statistically significant (bolded) effect of a supplement on the Integral, Px,max and μ readout.
# Aiming to understand better the contribution of each protein in the formulation of the media, an optimization step was performed using the Three-Variable Rotatable Central Composite Design (RCCD; Rodrigues and lemma, 2005). The concentration range of each supplement was the same as given in Table 2 for the PB12 design, with the same concentration for the level 0, −1, and +1 condition. Re-measurement at these levels provided further confidence to the previously measured results. In addition, two more levels, −1.68 and +1.68, were included to increase the number of measurements as recommended by the RCCD methodology.
# The basal media was: a 1:1 mixture 1:1 of DMEM and Ham's F12 (DMEM/F12; Mediatech, Manassas, Va.; catalog number 10-092), 1.5% NEAA, 8.46 mg/L citric acid, 0.89×10^−4 mM sodium selenite, 2 mM glutamine (total of 4.5 mM), BME 110 μM, gentamicin sulfate 50 μg/mL and 8 ng/mL of FGF-2.
# As before, kinetics growth of H-9 cells were obtained and readouts like Integral and Px, max were calculated (Table 6).
# Through the use of Statistica software (StatSoft, Tulsa, Okla.), a second order mathematical model was generated in order to evaluate the real contribution of each supplement (Table 7).
# [3] = 1st RCCD, codified values, R^2 = 80.0%
# [4] = PB12, level −1 to +1 (ranges Table 2), least square method
substance,measurement,setting,value
Albumin: CellPrime rAlbumin AF-S recombinant human albumin (Millipore); AF-G in the 4th RCCD,"Regression coefficient (Quadratic), integral","[1]; 1st RCCD, R^2 = 86.4%",−4.80
same,"Regression coefficient (Linear), Px, max","[1]; 2nd RCCD, R^2 = 37.9%",0.0001
same,"Regression coefficient (Quadratic), Px, max","[1]; 2nd RCCD, R^2 = 37.9%",−0.0084
same,"Regression coefficient (Linear), integral","[1]; 2nd RCCD, R^2 = 62.7%",12.93
same,"Regression coefficient (Quadratic), integral","[1]; 2nd RCCD, R^2 = 62.7%",0.38
same,"Regression coefficient (Linear), integral","[1]; 3rd RCCD, R^2 = 65.8%",8.42
same,"Regression coefficient (Quadratic), integral","[1]; 3rd RCCD, R^2 = 65.8%",−1.49
same,"Regression coefficient (Linear), Px, max","[1]; 3rd RCCD, R^2 = 86.4%",0.072
same,"Regression coefficient (Quadratic), Px, max","[1]; 3rd RCCD, R^2 = 86.4%",0.0008
same,"Regression coefficient (Linear), Px, max","[1]; 4th RCCD, R^2 = 69.0%",0.0022
same,"Regression coefficient (Quadratic), Px, max","[1]; 4th RCCD, R^2 = 69.0%",−0.0019
same,"Regression coefficient (Linear), integral","[1]; 4th RCCD, R^2 = 88.0%",8.51
same,"Regression coefficient (Quadratic), integral","[1]; 4th RCCD, R^2 = 88.0%",−8.80
same,"Regression coefficient (Linear), Px, max",[2]; [3],0.0154
same,"Regression coefficient (Quadratic), Px, max",[2]; [3],−0.0013
same,"Regression coefficient (Linear), integral","[2]; 1st RCCD, codified values, R^2 = 86.4%",75.95
same,Effect on Integral,[2]; [4],132.76
same,"Effect on Px, max",[2]; [4],0.0297
same,Effect on μ,[2]; [4],0.0168
